# Experimental data reported in PubChem BioAssay AID827 (SRMLSC, 2007).
# Only a part is listed here, and it is no random draw. Activity calls are given as the source filed them.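 How the source made its calls: active means viability at or below a set limit, 4 SD under the median of all tested compounds (cut at about 3.7% in these data); inactive means the rest.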
# Assay: viability loss in PTEN-deleted colon tumor cells – cell-based, HCT116, CellTiter-Glo, primary screen (AID 827);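 further: PTEN knockout HCT116 line with beta catenin targeted HCT116 as companion control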
# Details: HCT116 PTEN-null viability, 60 h, at 10 µM, hits give low values
row,Structure (SMILES),viability
1,CC1CCN(C(=O)Oc2c(Cl)cc(Cl)c3cccnc23)CC1,inactive: 58.9%
2,CN(C)C(=O)OCCc1n(C)cc[n+]1C,inactive: 92.2%
3,CCc1nc2c(n1)c1c(non1O)c1c2no[n+]1[O-],active: 1.66%
4,CC(=O)N1C2C3N(C(C)=O)C1C1N(C(C)=O)C(C(N1C(C)=O)N3C(C)=O)N2C(C)=O,inactive: 92.2%
5,O=[N+]([O-])c1cccc2n[nH]nc12,inactive: 106%
6,Oc1ccccc1CNc1ccccn1,inactive: 94.2%
7,O=C(NC(Sc1ccncn1)C(Cl)(Cl)Cl)c1ccccc1 (stereo not drawn),inactive: 91.4%
8,Cc1c2non([O-])c-2c(C)[n+](=O)[n+]1[O-],inactive: 81.7%
9,CC(C)CC(=O)NC(Sc1ccc(Cl)cc1)C(Cl)(Cl)Cl (stereo not drawn),inactive: 91.3%
10,CN1CCCC(OC(=O)C(c2ccccc2)c2ccccc2)C1 (stereo not drawn),inactive: 100%
11,CCN(N=Nc1nonc1N)c1nonc1N,inactive: 98.8%
12,Cc1cc(SC(NC(=O)c2ccc(F)cc2)C(Cl)(Cl)Cl)ncn1 (stereo not drawn),inactive: 104%
13,CCOP(=O)(Nc1ccccc1)OCC,inactive: 108%
14,CCC(=O)N1C2C3N(C(=O)CC)C1C1N(C(=O)CC)C(C(N1C(=O)CC)N3C(=O)CC)N2C(=O)CC,inactive: 111%
15,COC(=O)c1cc2c(s1)N=C(c1ccccc1)N(C)P2(=O)N1CCOCC1 (stereo not drawn),inactive: 108%
16,CC(=O)NC(SC(=S)N(CC(C)C)CC(C)C)C(Cl)(Cl)Cl (stereo not drawn),inactive: 17.7%
17,CCOC(=O)NC(Sc1ccccc1)C(Cl)(Cl)Cl (stereo not drawn),inactive: 94.6%
18,O=P1(Nc2nc3ccc(Cl)cc3s2)COc2ccccc2O1 (stereo not drawn),inactive: 98.9%
19,c1nnnn1CCn1cnnn1,inactive: 109%
20,O=P(Nc1nccs1)(c1ccccc1)c1ccccc1,inactive: 99.6%
21,CC(C)C(=O)NC(Sc1ccccc1)C(Cl)(Cl)Cl (stereo not drawn),inactive: 81.6%
22,O=C(OC1CN2CCC1CC2)c1cccc(Cl)c1 (stereo not drawn),inactive: 101%
23,C(Cc1nn[nH]n1)Cc1nn[nH]n1,inactive: 104%
24,CC(=O)NC(SC(=S)N(C)C)C(Cl)(Cl)Cl (stereo not drawn),inactive: 4.85%

row,Structure (SMILES),viability
1,Cc1ccc(OCC(=O)OC2CN3CCC2CC3)cc1 (stereo not drawn),inactive: 97.2%
2,O=P1(Nc2ccc(Br)cn2)COc2ccccc2OC1,inactive: 94.1%
3,O=P1(Nc2ncccn2)COc2ccccc2OC1,inactive: 103%
4,Cc1nn(-c2ccccc2)c2c1P(=O)(N1CCOCC1)N(C)C(c1ccccc1)=N2 (stereo not drawn),inactive: 91.3%
5,Clc1n[nH]nc1-c1nn[nH][15n]1,inactive: 100%
6,O=P1(Nc2ccccn2)COc2ccccc2OC1,inactive: 90.4%
7,COc1cc(C2NCCC3(OCCO3)C2(C)C)cc(OC)c1OC (stereo not drawn),inactive: 103%
8,CCOP(=O)(Nc1cccc2ccccc12)OCC,inactive: 86.7%
9,Cc1ccc(NCCc2c([N+](=O)[O-])cc([N+](=O)[O-])cc2[N+](=O)[O-])cc1,inactive: 64.8%
10,Cc1cccc(OCC(=O)OC2CN3CCC2CC3)c1 (stereo not drawn),inactive: 111%
11,CCOP1(=S)c2c(C)nn(CCC#N)c2N=C(c2ccc(F)cc2)N1C (stereo not drawn),inactive: 75.7%
12,O=[N+]([O-])c1ccc2c(c1)nnn2O,inactive: 104%
13,CCOP1(=S)c2c(C)nn(CCC#N)c2N=C(c2ccccc2F)N1C (stereo not drawn),inactive: 86.5%
14,O=P(Nc1nccs1)(c1ccccc1)c1nc2ccccc2s1 (stereo not drawn),inactive: 99.7%
15,CCN(CC)C(=S)SC(NC=O)C(Cl)(Cl)Cl (stereo not drawn),active: 2.07%
16,O=[N+]([O-])c1cc([N+](=O)[O-])c(-c2ccn[nH]2)s1,active: 2.33%
17,ClCCSc1nnc(-c2cccnc2)o1,inactive: 96%
18,Cc1ccc2nc3c(c(C)c2c1)CC(C(Cl)Cl)S3 (stereo not drawn),inactive: 81.1%
19,Cc1c2c(nc3ccccc13)SC(C(Cl)Cl)C2 (stereo not drawn),inactive: 83.7%
20,O=C(OC1CN2CCC1CC2)C12CC3CC(CC(C3)C1)C2 (stereo not drawn),inactive: 86.7%
21,CCC(C)N(CC(C)C)C(=S)SC(NC(C)=O)C(Cl)(Cl)Cl (stereo not drawn),inactive: 17.1%
22,O=C(COc1ccccc1)OC1CN2CCC1CC2 (stereo not drawn),inactive: 90.4%
23,COP1(=S)c2c(C)nn(CCC#N)c2N=C(c2ccc(F)cc2)N1C (stereo not drawn),inactive: 101%
24,Cc1cc(SC(NC(=O)c2ccccc2)C(Cl)(Cl)Cl)nc(C(C)C)n1 (stereo not drawn),inactive: 100%
